PubChem BioAssay AID1724 (National Center for Advancing Translational Sciences (NCATS), 2009)
This is a selection; strong and weak results do not stand in their true shares. Results filed as inconclusive are left out. Activity calls are given as the source filed them. Calls come from the whole dose curve; as a rule, active = well fitted inhibition curve with a large enough effect; inconclusive = small, poorly fitted or top-dose-only effect, or effect the other way; inactive = no such curve, though single readings can be large or run the other way.

Test: Confirmation Concentration-Response Assay for Inhibitors of the ERK Signaling Pathway using a Homogeneous Screening Assay
Details: HEK293 cells, hormone-stimulated phospho-ERK AlphaScreen
Source text: qHTS Assay for Inhibitors of the ERK Signaling Pathway using a Homogeneous Screening Assay
NIH Chemical Genomics Center [NCGC]
NIH Molecular Libraries Screening Centers Network [MLSCN]
Assay Submitter (PI): Dr. Wei Zheng, NCGC/NIH
The Ras/extracellular-signal-regulated kinase (ERK) mitogen activated protein (MAP) kinase signaling pathway (ERK1/2 cascade) plays is a key role in transmitting signals from the cell surface to the nucleus (Nishida and Gotoh 1993; Chang and Karin, 2001). The cascade is initiated by the small G-protein Ras, which recruits Raf […], where activation occurs. Alternatively, this pathway can be activated by elevating intracellular cAMP.
Activation of the ERK pathway is essential in increased cell division and cell survival. […]
HEK293 cells stably expressing type-1 vasopressin receptor (V1b) were maintained in DMEM medium (Invitrogen, Carlsbad, CA) at 37C under a humidified atmosphere containing 5% CO2 and 95% air. […] The ERK phosphorylation in cells was determined using an AlphaScreen assay kit provided by PerkinElmer. […] AC50 values were determined from concentration-response data modeled with the standard Hill equation. […]
(10) Detect the assay plate in an EnVision plate reader (PerkinElmer) using the AlphaScreen detection mode. […]

With COc1cccc(-c2cc(=O)c3ccccc3o2)c1N as the molecule, how does the Potency read?
Its Potency is active: 3.16 µM.
